Assay results as given in US8628750B2, “Cancer imaging and treatment” (Technische Universitat Munchen, priority 2006, dated 2014).

Amino acid sequences for entries named in this document (tags omitted).
UniProt P61073, whole entry: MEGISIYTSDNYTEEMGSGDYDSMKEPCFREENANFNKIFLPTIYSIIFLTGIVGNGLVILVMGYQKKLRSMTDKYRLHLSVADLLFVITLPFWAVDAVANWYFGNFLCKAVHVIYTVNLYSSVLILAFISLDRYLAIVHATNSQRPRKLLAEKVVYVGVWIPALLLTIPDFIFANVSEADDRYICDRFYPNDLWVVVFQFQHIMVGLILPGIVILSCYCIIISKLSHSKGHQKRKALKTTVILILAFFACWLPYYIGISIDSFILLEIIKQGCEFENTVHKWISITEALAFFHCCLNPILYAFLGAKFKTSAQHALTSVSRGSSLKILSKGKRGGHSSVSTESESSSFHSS

Biological target: human CXCR4 (Homo sapiens, UniProt P61073)
Test: cell-based
Assay type: binding
Parameters: Jurkat cells that endogenously express the CXCR4 receptor; endogenous in cells; host or cells: Jurkat (ATCC)
Description: For receptor binding assays cells were resuspended in PBS/0.2% BSA. […] Cell bound radioactivity was determined by using a gamma counter.

| SMILES | IC50 |
| --- | --- |
| NCCC[C@@H]1NC(=O)[C@H](CCCN)NC(=O)[C@@H](Cc2ccc(O)cc2)NC(=O)CNC(=O)[C@H](Cc2ccc3ccccc3c2)NC1=O [OD23, cyc[Nal-Gly-D-Tyr-Orn-Orn]] | > 1 µM |
| C[C@@H]1NC(=O)[C@H](Cc2ccc3ccccc3c2)NC(=O)[C@H](CCCNC(=N)N)NC(=O)[C@H](CCCNC(=N)N)NC(=O)[C@@H](Cc2ccc(O)cc2)NC(=O)CN(C)C1=O [BL69, cyc[Arg-Nal-Ala-(Me)Gly-D-Tyr-Arg]] | > 1 µM |
| CN1CC(=O)N[C@H](Cc2ccc(O)cc2)C(=O)N[C@@H](CCCNC(=N)N)C(=O)N(C)[C@@H](CCCNC(=N)N)C(=O)N[C@@H](Cc2ccc3ccccc3c2)C1=O [OD19, cyc[(Me)Arg-Nal-(Me)Gly-D-Tyr-Arg]] | > 1 µM |
| CN1C(=O)[C@@H](Cc2ccc(O)cc2)NC(=O)CNC(=O)[C@H](Cc2ccc3ccccc3c2)NC(=O)[C@H](CCCNC(=N)N)N(C)C(=O)[C@@H]1CCCNC(=N)N [OD21, cyc[(Me)Arg-Nal-Gly-D-Tyr-(Me)Arg]] | > 1 µM |
| C[C@H]1C(=O)NCC(=O)N[C@H](Cc2ccc(O)cc2)C(=O)N(C)[C@@H](CCCNC(=N)N)C(=O)N[C@@H](CCCNC(=N)N)C(=O)N[C@@H](Cc2ccc3ccccc3c2)C(=O)N1C [BL74, cyc[Arg-Nal-(Me)Ala-Gly-D-Tyr-(Me)Arg]] | > 1 µM |
| C[C@@H]1NC(=O)[C@H](Cc2ccc3ccccc3c2)N(C)C(=O)[C@H](CCCNC(=N)N)N(C)C(=O)[C@H](CCCNC(=N)N)NC(=O)[C@@H](Cc2ccc(O)cc2)NC(=O)CN(C)C1=O [BL104, cyc[(Me)Arg-(Me)Nal-Ala-(Me)Gly-D-Tyr-Arg]] | > 1 µM |
| C[C@H]1C(=O)N(C)CC(=O)N[C@H](Cc2ccc(O)cc2)C(=O)N[C@@H](CCCNC(=N)N)C(=O)N[C@@H](CCCNC(=N)N)C(=O)N(C)[C@@H](Cc2ccc3ccccc3c2)C(=O)N1C [BL102, cyc[Arg-(Me)Nal-(Me)Ala-(Me)Gly-D-Tyr-Arg]] | > 1 µM |
| C[C@H]1C(=O)NCC(=O)N[C@H](Cc2ccc(O)cc2)C(=O)N[C@@H](CCCNC(=N)N)C(=O)N(C)[C@@H](CCCNC(=N)N)C(=O)N[C@@H](Cc2ccc3ccccc3c2)C(=O)N1C [BL84, cyc[(Me)Arg-Nal-(Me)Ala-Gly-D-Tyr-Arg]] | > 1 µM |
| C[C@@H]1NC(=O)[C@@H](C)NC(=O)[C@H](CCCNC(=N)N)NC(=O)[C@H](CCCNC(=N)N)NC(=O)[C@@H](Cc2ccc(O)cc2)NC(=O)CNC1=O [BL 39, cyc[D-Tyr-Arg-Arg-D-Ala-Ala-Gly]] | > 1 µM |
| C[C@@H]1NC(=O)[C@H](CCCNC(=N)N)NC(=O)[C@@H](Cc2ccc(O)cc2)NC(=O)CNC(=O)[C@H](Cc2ccc3ccccc3c2)NC(=O)[C@H](CCCNC(=N)N)NC1=O [BL132, cyc[D-Tyr-Arg-Ala-Arg-Nal-Gly]] | > 1 µM |
| C[C@@H]1NC(=O)[C@H](Cc2ccc3ccccc3c2)NC(=O)[C@H](CCCNC(=N)N)N(C)C(=O)[C@H](CCCNC(=N)N)N(C)C(=O)[C@@H](Cc2ccc(O)cc2)NC(=O)CN(C)C1=O [BL93, cyc[(Me)Arg-Nal-Ala-(Me)Gly-D-Tyr-(Me)Arg]] | > 1 µM |
| C[C@H]1NC(=O)CNC(=O)[C@H](Cc2ccc3ccccc3c2)NC(=O)[C@H](CCCNC(=N)N)NC(=O)[C@H](CCCNC(=N)N)NC(=O)[C@@H](Cc2ccc(O)cc2)NC1=O [BL136, cyc[D-Ala-D-Tyr-Arg-Arg-Nal-Gly]] | > 1 µM |
| N=C(N)NCCC[C@@H]1NC(=O)[C@H](CCCNC(=N)N)NC(=O)[C@@H](Cc2ccc(O)cc2)NC(=O)CNC(=O)CNC(=O)[C@H](Cc2ccc3ccccc3c2)NC1=O [BL130, cyc[D-Tyr-Arg-Arg-Nal-Gly-Gly]] | ~1 µM |
| C[C@@H]1NC(=O)[C@H](Cc2ccc3ccccc3c2)NC(=O)[C@H](CCCNC(=N)N)N(C)C(=O)[C@H](CCCNC(=N)N)N(C)C(=O)[C@@H](Cc2ccc(O)cc2)NC(=O)CNC1=O [BL72, cyc[(Me)Arg-Nal-Ala-Gly-D-Tyr-(Me)Arg]] | > 1 µM |
| C[C@H]1C(=O)NCC(=O)N[C@H](Cc2ccc(O)cc2)C(=O)N(C)[C@@H](CCCNC(=N)N)C(=O)N[C@@H](CCCNC(=N)N)C(=O)N(C)[C@@H](Cc2ccc3ccccc3c2)C(=O)N1C [BL94, cyc[Arg-(Me)Nal-(Me)Ala-Gly-D-Tyr-(Me)Arg]] | > 1 µM |
| C[C@@H]1NC(=O)[C@H](Cc2ccc3ccccc3c2)NC(=O)[C@H](CCCNC(=N)N)N(C)C(=O)[C@H](CCCNC(=N)N)NC(=O)[C@@H](Cc2ccc(O)cc2)NC(=O)CN(C)C1=O [BL81, cyc[(Me)Arg-Nal-Ala-(Me)Gly-D-Tyr-Arg]] | > 1 µM |
| CN1C(=O)[C@H](CCCNC(=N)N)NC(=O)[C@@H](Cc2ccc(O)cc2)NC(=O)CNC(=O)[C@H](Cc2ccc3ccccc3c2)N(C)C(=O)[C@@H]1CCCNC(=N)N [OD12, cyc[(Me)Arg-(Me)Nal-Gly-D-Tyr-Arg]] | > 1 µM |
| C[C@@H]1NC(=O)CNC(=O)[C@H](Cc2ccc3ccccc3c2)NC(=O)[C@H](CCCNC(=N)N)NC(=O)[C@H](CCCNC(=N)N)NC(=O)[C@@H](Cc2ccc(O)cc2)NC1=O [BL137, cyc[Ala-D-Tyr-Arg-Arg-Nal-Gly]] | ~1 µM |
| CC(F)C(=O)NC[C@@H]1NC(=O)[C@H](Cc2ccc3ccccc3c2)NC(=O)[C@H](CCCNC(=N)N)NC(=O)[C@H](CCCNC(=N)N)NC(=O)[C@@H](Cc2ccc(O)cc2)NC(=O)CNC1=O (stereo partly drawn) [BL 58, cyc[D-Tyr-Arg-Arg-Nal-Dap(FP)-Gly]] | ~1 µM |
| CN1CC(=O)N[C@H](Cc2ccc(O)cc2)C(=O)N(C)[C@@H](CCCNC(=N)N)C(=O)N[C@@H](CCCNC(=N)N)C(=O)N[C@@H](Cc2ccc3ccccc3c2)C1=O [OD15, cyc[Arg-Nal-(Me)Gly-D-Tyr-(Me)Arg]] | 0.3 to 0.4 µM |
| C[C@H]1C(=O)N(C)CC(=O)N[C@H](Cc2ccc(O)cc2)C(=O)N[C@@H](CCCNC(=N)N)C(=O)N[C@@H](CCCNC(=N)N)C(=O)N[C@@H](Cc2ccc3ccccc3c2)C(=O)N1C [BL83, cyc[Arg-Nal-(Me)Ala-(Me)Gly-D-Tyr-Arg]] | > 1 µM |
| N=C(N)NCCC[C@@H]1NC(=O)[C@@H](Cc2ccc(O)cc2)NC(=O)CNC(=O)[C@H](Cc2ccc3ccccc3c2)NC(=O)[C@H](CCCN)NC1=O [OD24, cyc[Nal-Gly-D-Tyr-Arg-Orn]] | ~1 µM |
| C[C@@H]1NC(=O)[C@H](Cc2ccc3ccccc3c2)NC(=O)[C@H](CCCNC(=N)N)NC(=O)[C@H](CCCNC(=N)N)N(C)C(=O)[C@@H](Cc2ccc(O)cc2)NC(=O)CN(C)C1=O [BL75, cyc[Arg-Nal-Ala-(Me)Gly-D-Tyr-(Me)Arg]] | > 1 µM |
| C[C@@H]1NC(=O)[C@H](Cc2ccc3ccccc3c2)N(C)C(=O)[C@H](CCCNC(=N)N)NC(=O)[C@H](CCCNC(=N)N)N(C)C(=O)[C@@H](Cc2ccc(O)cc2)NC(=O)CN(C)C1=O [BL92, cyc[Arg-(Me)Nal-Ala-(Me)Gly-D-Tyr-(Me)Arg]] | > 1 µM |
| CN1C(=O)CNC(=O)[C@H](Cc2ccc3ccccc3c2)NC(=O)[C@H](CCCNC(=N)N)NC(=O)[C@H](CCCNC(=N)N)N(C)C(=O)[C@H]1Cc1ccc(O)cc1 [OD16, cyc[Arg-Nal-Gly-(Me)D-Tyr-(Me)Arg]] | ~1 µM |
| CN1C(=O)[C@H](CCCNC(=N)N)NC(=O)[C@H](CCCNC(=N)N)N(C)C(=O)[C@@H](Cc2ccc(O)cc2)NC(=O)CNC(=O)[C@@H]1Cc1ccc2ccccc2c1 [OD20, cyc[Arg-(Me)Nal-Gly-D-Tyr-(Me)Arg]] | 0.1 to 0.2 µM |

Continued, values first:

| IC50 | SMILES |
| --- | --- |
| > 1 µM | C[C@@H]1NC(=O)[C@H](Cc2ccc3ccccc3c2)N(C)C(=O)[C@H](CCCNC(=N)N)NC(=O)[C@H](CCCNC(=N)N)N(C)C(=O)[C@@H](Cc2ccc(O)cc2)NC(=O)CNC1=O [BL73, cyc[Arg-(Me)Nal-Ala-Gly-D-Tyr-(Me)Arg]] |
| > 1 µM | C[C@H]1NC(=O)[C@H](CCCNC(=N)N)NC(=O)[C@@H](Cc2ccc(O)cc2)NC(=O)CNC(=O)[C@H](Cc2ccc3ccccc3c2)NC(=O)[C@H](CCCNC(=N)N)NC1=O [BL133, cyc[D-Tyr-Arg-D-Ala-Arg-Nal-Gly]] |
| > 1 µM | C[C@@H]1NC(=O)[C@H](CCCNC(=N)N)NC(=O)[C@H](CCCNC(=N)N)NC(=O)[C@@H](Cc2ccc(O)cc2)NC(=O)CNC(=O)[C@H](Cc2ccc3ccccc3c2)NC1=O [BL131, cyc[D-Tyr-Arg-Arg-Ala-Nal-Gly]] |
| > 1 µM | C[C@@H]1NC(=O)[C@H](Cc2ccc3ccccc3c2)NC(=O)[C@H](CCCNC(=N)N)N(C)C(=O)[C@H](CCCNC(=N)N)NC(=O)[C@@H](Cc2ccc(O)cc2)NC(=O)CNC1=O [BL66, cyc[(Me)Arg-Nal-Ala-Gly-D-Tyr-Arg]] |
| > 1 µM | C[C@@H]1NC(=O)[C@H](Cc2ccc3ccccc3c2)N(C)C(=O)[C@H](CCCNC(=N)N)NC(=O)[C@H](CCCNC(=N)N)NC(=O)[C@@H](Cc2ccc(O)cc2)NC(=O)CN(C)C1=O [BL82, cyc[Arg-(Me)Nal-Ala-(Me)Gly-D-Tyr-Arg]] |
| > 1 µM | C[C@H]1NC(=O)[C@@H](Cc2ccc(O)cc2)NC(=O)CNC(=O)[C@H](Cc2ccc3ccccc3c2)NC(=O)[C@H](CCCNC(=N)N)NC(=O)[C@H](CCCNC(=N)N)NC1=O [BL134, cyc[D-Tyr-D-Ala-Arg-Arg-Nal-Gly]] |
| > 1 µM | C[C@@H]1NC(=O)[C@@H](Cc2ccc(O)cc2)NC(=O)CNC(=O)[C@H](Cc2ccc3ccccc3c2)NC(=O)[C@H](CCCNC(=N)N)NC(=O)[C@H](CCCNC(=N)N)NC1=O [BL135, cyc[D-Tyr-Ala-Arg-Arg-Nal-Gly]] |
| > 1 µM | C[C@@H]1NC(=O)[C@H](Cc2ccc3ccccc3c2)N(C)C(=O)[C@H](CCCNC(=N)N)NC(=O)[C@H](CCCNC(=N)N)NC(=O)[C@@H](Cc2ccc(O)cc2)NC(=O)CNC1=O [BL67, cyc[Arg-(Me)Nal-Ala-Gly-D-Tyr-Arg]] |
| > 1 µM | C[C@H]1C(=O)NCC(=O)N[C@H](Cc2ccc(O)cc2)C(=O)N[C@@H](CCCNC(=N)N)C(=O)N[C@@H](CCCNC(=N)N)C(=O)N[C@@H](Cc2ccc3ccccc3c2)C(=O)N1C [BL68, cyc[Arg-Nal-(Me)Ala-Gly-D-Tyr-Arg]] |
| ~1 µM | C[C@@H]1NC(=O)[C@H](Cc2ccc3ccccc3c2)NC(=O)[C@H](CCCNC(=N)N)NC(=O)[C@H](CCCNC(=N)N)N(C)C(=O)[C@@H](Cc2ccc(O)cc2)NC(=O)CNC1=O [BL71, cyc[Arg-Nal-Ala-Gly-D-Tyr-(Me)Arg]] |
| > 1 µM | C[C@H]1C(=O)NCC(=O)N[C@H](Cc2ccc(O)cc2)C(=O)N[C@@H](CCCNC(=N)N)C(=O)N[C@@H](CCCNC(=N)N)C(=O)N(C)[C@@H](Cc2ccc3ccccc3c2)C(=O)N1C [BL85, cyc[Arg-(Me)Nal-(Me)Ala-Gly-D-Tyr-Arg]] |
